This note sets out measurements from BindingDB's records for doi:10.1016/j.bmcl.2017.11.013 (Csir-Indian Institute of Integrative Medicine, 2017).

Molecules are shown by their SMILES.

A short description of this data set: Inhibition of human CYP1A1 transfected in HEK293 cells assessed as protection against CYP1A1 mediated B[a]P toxicity by measuring B[a]P EC50 at 20 uM by MTT assay (Rvb =1.2+/- 0.3 uM). Background: Formazan colour is commonly taken as a measure of viable cells.

In general, EC50 refers to the midpoint of the concentration-response curve. Consider `O=c1cc(-c2ccccc2)oc2c1ccc1ccccc12`, for which the EC50 is 3.2 µM.
